Measured values from publication PMC4569708, “Synergistic activation of human pregnane X receptor by binary cocktails of pharmaceutical and environmental compounds” (Nature Communications, 2015).

Target: T1, PXR (Homo sapiens, UniProt O75469)
T1 sequence (O75469 107-434): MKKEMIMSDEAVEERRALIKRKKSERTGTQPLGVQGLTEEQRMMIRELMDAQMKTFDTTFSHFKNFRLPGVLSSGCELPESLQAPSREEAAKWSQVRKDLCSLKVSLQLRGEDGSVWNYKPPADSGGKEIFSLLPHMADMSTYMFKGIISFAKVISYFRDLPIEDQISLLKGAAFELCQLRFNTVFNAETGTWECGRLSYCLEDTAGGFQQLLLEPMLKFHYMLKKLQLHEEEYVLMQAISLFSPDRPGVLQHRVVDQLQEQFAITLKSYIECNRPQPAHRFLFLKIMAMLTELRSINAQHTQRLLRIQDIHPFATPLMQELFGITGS
Experiment: Medium-throughput screening, HG5LN GAL4-PXR-LBD reporter cell line (HeLa)
Settings: HG5LN GAL4-PXR reporter cells; 3 µM SR12813 = 100% activation; determined prior to the screening
Description: Using medium-throughput ligand screening and a mammalian (HeLa) cell-based activation assay (HG5LN GAL4-PXR-LBD reporter cell line)[14][15], we monitored the agonistic potential of 40 chemicals either alone or in binary mixtures (Supplementary Table 1). […] We next examined the effect of TNC, EE2, and their combination in human liver (HepG2) and colon (LS174T) carcinoma cell lines containing the full-length PXR and the CYP3A4-XREM luciferase reporter plasmids.
LS174T stable human PXR transfectant (LS-PXR2) and the corresponding control cells (LS-CTRL), HEPG2-PXR and HG5LN GAL4-PXR reporter cell lines were previously described. […] HEPG2-PXR was obtained after stable transfection of the same PXR expressing plasmid and the XREM-CYP3A4 pGL3b reporter plasmid. […] Finally, LS174T-PXR reporter cell line was established by stable transfection of the CYP3A4-luciferase-hygromycine plasmid in the LS-PXR2 cell line. […]
HG5LN GAL4-PXR reporter cell lines (100 μl) were seeded at a density of 25,000 cells per well in 96-well white opaque tissue culture plates (Greiner CellStar). […] Luciferase activity was measured for 2 s in intact living cells using a plate reader (PerkinElmer Luminometer). […]
#For each ligand, the concentration used was determined prior to the screening experiment. […]

Hyperforin
Concentration: dose at which the compound alone induces ≈30% of the luciferase expression obtained with 3 µM SR12813: 100 nM
